Reference: patent US7410949B2, “Neuropeptide-2 receptor (Y-2R) agonists and uses thereof” (Hoffmann-La Roche Inc., priority 2005, dated 2008)

Protein sequences, listed by entry. Tags and fused reporters are not part of them. Lines headed by an entry give the natural chain unless they say otherwise; changes in a name come on top.
UniProt P25929, whole entry: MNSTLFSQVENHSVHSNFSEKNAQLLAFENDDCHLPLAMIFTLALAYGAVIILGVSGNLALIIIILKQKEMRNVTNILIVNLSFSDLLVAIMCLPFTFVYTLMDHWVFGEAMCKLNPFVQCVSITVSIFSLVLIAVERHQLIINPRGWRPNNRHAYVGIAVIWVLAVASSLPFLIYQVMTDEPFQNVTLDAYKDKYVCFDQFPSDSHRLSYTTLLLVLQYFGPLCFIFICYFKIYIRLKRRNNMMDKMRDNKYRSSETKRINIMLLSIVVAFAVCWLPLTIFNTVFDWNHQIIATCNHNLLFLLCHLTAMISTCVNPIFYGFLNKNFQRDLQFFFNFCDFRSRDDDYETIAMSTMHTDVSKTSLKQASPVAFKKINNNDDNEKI
UniProt P50391: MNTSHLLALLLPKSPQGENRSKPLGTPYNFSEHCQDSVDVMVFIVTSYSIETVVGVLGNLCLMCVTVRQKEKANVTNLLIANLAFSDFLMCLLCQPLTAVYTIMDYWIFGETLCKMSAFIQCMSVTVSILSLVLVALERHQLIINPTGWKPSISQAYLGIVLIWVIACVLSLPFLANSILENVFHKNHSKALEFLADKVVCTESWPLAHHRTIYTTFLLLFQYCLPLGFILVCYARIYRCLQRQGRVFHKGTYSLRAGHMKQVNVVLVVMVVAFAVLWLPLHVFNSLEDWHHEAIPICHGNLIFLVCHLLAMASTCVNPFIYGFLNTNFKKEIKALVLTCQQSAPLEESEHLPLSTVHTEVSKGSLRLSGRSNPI
UniProt P49146, whole entry: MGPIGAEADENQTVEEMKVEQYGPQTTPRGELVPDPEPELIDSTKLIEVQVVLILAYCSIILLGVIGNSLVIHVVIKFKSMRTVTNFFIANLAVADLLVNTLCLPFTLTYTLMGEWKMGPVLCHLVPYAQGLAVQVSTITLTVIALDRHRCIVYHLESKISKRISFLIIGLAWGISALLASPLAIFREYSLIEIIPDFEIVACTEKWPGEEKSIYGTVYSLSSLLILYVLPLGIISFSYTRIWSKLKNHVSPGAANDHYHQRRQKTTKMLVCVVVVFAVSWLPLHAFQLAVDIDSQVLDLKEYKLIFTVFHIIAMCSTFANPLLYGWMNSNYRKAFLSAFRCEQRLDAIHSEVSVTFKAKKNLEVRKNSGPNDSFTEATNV

Assays:
Assay type in all cases: cell-based
Y1R = Y1R (Homo sapiens, UniProt P25929); assay: FLIPR assay, Y1R; settings: read-out: Y1R EC50(nM) FLIPR
Protocol: (§1) Loading Buffer (Calcium-3 Assay Kit, Molecular Devices) was prepared by dissolving the contents of one vial (Express Kit) into 1000 ml Hank's Balanced Salt Solution containing 20 mM HEPES and 5 mM probenecid.
(§2) During the incubation, test compounds were prepared at 3.5× the desired concentration in HBSS (20 mM HEPES)/0.05% BSA/1% DMSO and transferred to a 384 well plate for use on FLIPR.
(§3) After incubation, both the cell and compound plates were brought to the FLIPR and 20 μL of the diluted compounds were transferred to the cell plates by the FLIPR. During the assay, fluorescence readings were taken simultaneously from all 384 wells of the cell plate every 1.5 seconds. Five readings were taken to establish a stable baseline, and then 20 μL of sample was rapidly (30 μL/sec) and simultaneously added to each well of the cell plate. The fluorescence was continuously monitored before, during and after sample addition for a total elapsed time of 100 seconds. Responses (increase in peak fluorescence) in each well following addition was determined. The initial fluorescence reading from each well, prior to ligand stimulation, was used as a zero baseline value for the data from that well. The responses are expressed as % of maximal response of the positive control.

Y4R = Y4R (Homo sapiens, UniProt P50391); assay: FLIPR assay, Y4R; settings: read-out: Y4R EC50(nM) FLIPR
Protocol: as §1, §2, §3

hNPY2R [1] = molecular target: T1, hNPY2R (Homo sapiens, UniProt P49146); assay: cAMP Agonist Assay in HEK293/hNPY2R cells; parameters: expressed in transfected cells; host or cells: HEK293/hNPY2R (grown under G418 selection); settings: read-out: Y2R IC50(nM) cAMP, Forskolin 5 μM
Protocol: The flask was gently tapped and the cell suspension was pooled. […] The suspension was pooled and counted.
The plates were incubated at 37° C. overnight.
The media and reagents were allowed to come to room temperature.
The cell medium was tapped off with a gentle inversion of the cell plate on a paper towel. 50 μL of stimulation medium was placed per well (each concentration done in four replicates). The plates were incubated at room temperature for 30 min, and the cells were checked under a microscope for toxicity.
20 μL of the lysate was transferred from stimulation plates into the pre-coated antibody plates (384-well) from the Tropix kit. […] The plates were incubated at room temperature while shaking for 1 hour. […] The plates were tapped to dry. […] Signal for 1 sec/well in a Luminometer. (VICTOR-V) was measured.

hNPY2R [2] = molecular target: T1, hNPY2R; assay: CaFlux Assay (FLIPR), Y2R; parameters: expressed in transfected cells; host or cells: HEK-293 cells stably expressing the G protein chimera Gaqi9; settings: read-out: Y2R EC50(nM) FLIPR; Hek-293 cells with Gaqi9 and human NPY2 receptor
Protocol: Hek-293 cells were stably transfected with the G protein chimera Gaqi9 and the hygromycin-B resistance gene were further transfected with the human NPY2 receptor and G418 antibiotic selection. Following selection in both hygromycin-B and G418, individual clones were assayed for their response to PYY. The transfected cells were cultured in DMEM medium supplemented with 10% fetal bovine serum, 50 μg/ml hygromycin-B 2 mM glutamine, 100 U/ml penicillin, 100 μg/ml streptomycin and 250 μg/ml G418. Cells are harvested with trypsin-EDTA and counted using ViaCount reagent. The cell suspension volume is adjusted to 4.8×10^5 cells/ml with complete growth media. Aliquots of 25 μL are dispensed into 384 well Poly-D Lysine coated black/clear microplates (Falcon) and the microplates were placed in a 37° C. CO2 incubator overnight.
as §1, §2, §3

Substance	EC50 (Y1R)	EC50 (Y4R)	IC50 (hNPY2R [1])	EC50 (hNPY2R [2])
Ac-Ile-Nle-Pqa-Arg-His-Tyr-Leu-Asn-Leu-Val-Thr-Arg-Gln-Arg-Tyr-NH2 [Example 44]	760 nM	> 5000 nM	0.338 nM	6.1 nM
H-(D) Ile-Lys-Pqa-Arg-His-Tyr-Leu-Asn-Leu-Val-Thr-Arg-Gln-Arg-Tyr-NH2 [Example 30]	> 5000 nM	> 5000 nM	0.099 nM	0.22 nM
H-Ile-(D)Lys-Pqa-Arg-His-Tyr-Leu-Asn-Leu-Val-Thr-Arg-Gln-Arg-Tyr-NH2 [Example 29]	> 5000 nM	> 5000 nM	0.078 nM	0.43 nM
H-Ile-Lys-Pqa-(D)Arg-His-Tyr-Leu-Asn-Leu-Val-Thr-Arg-Gln-Arg-Tyr-NH2 [Example 28]	1100 nM	> 5000 nM	0.201 nM	5.2 nM
H-Ile-Lys-Pqa-(NMe)Arg-His-Tyr-Leu-Asn-Leu-Val-Thr-Arg-Gln-Arg-Tyr-NH2 [Example 40]	1600 nM	> 5000 nM	0.218 nM	4.4 nM
H-Ile-Lys-Pqa-Arg-His-(NMe)Tyr-Leu-Asn-Leu-Val-Thr-Arg-Gln-Arg-Tyr-NH2 [Example 38]	> 5000 nM	> 5000 nM	11.7 nM	1.2 nM
H-Ile-Lys-Pqa-Arg-His-Tyr-(D)Leu-Asn-Leu-Val-Thr-Arg-Gln-Arg-Tyr-NH2 [Example 25]	3800 nM	> 5000 nM	0.37 nM	5.26 nM
H-Ile-Lys-Pqa-Arg-His-Tyr-Leu-(D))Asn-Leu-Val-Thr-Arg-Gln-Arg-Tyr-NH2 [Example 24]	3800 nM	> 5000 nM	0.92 nM	48 nM
H-Ile-Lys-Pqa-Arg-His-Tyr-Leu-Asn-(D)Leu-Val-Thr-Arg-Gln-Arg-Tyr-NH2 [Example 23]	> 5000 nM	> 5000 nM	22 nM	66 nM
H-Ile-Lys-Pqa-Arg-His-Tyr-Leu-Asn-(NMe)Leu-Val-Thr-Arg-Gln-Arg-Tyr-NH2 [Example 36]	> 5000 nM	> 5000 nM	12 nM	103 nM
H-Ile-Lys-Pqa-Arg-His-Tyr-Leu-Asn-Leu-(D)Val-Thr-Arg-Gln-Arg-Tyr-NH2 [Example 22]	> 5000 nM	> 5000 nM	21 nM	322 nM
H-Ile-Lys-Pqa-Arg-His-Tyr-Leu-Asn-Leu-(NMe)Val-Thr-Arg-Gln-Arg-Tyr-NH2 [Example 35]	> 5000 nM	> 5000 nM	42 nM	44.4 nM
H-Ile-Lys-Pqa-Arg-His-Tyr-Leu-Asn-Leu-Val-Thr-(D)Arg-Gln-Arg-Tyr-NH2 [Example 21]	> 5000 nM	> 5000 nM	65 nM	324 nM
H-Ile-Lys-Pqa-Arg-His-Tyr-Leu-Asn-Leu-Val-Thr-Arg-Gln-(D)Arg-Tyr-NH2 [Example 20]	> 5000 nM	> 5000 nM	25 nM	110 nM
H-Ile-Lys-Pqa-Arg-His-Tyr-Leu-Asn-Leu-Val-Thr-Arg-Gln-Arg-(D)Tyr-NH2 [Example 19]	3300 nM	> 5000 nM	1.09 nM	3.5 nM
H-Ile-Lys-Pqa-Arg-His-Tyr-Leu-Asn-Leu-Val-Thr-Arg-Gln-Arg-(NMe)Tyr-NH2 [Example 31]	> 5000 nM	> 5000 nM	2.6 nM	11.8 nM
H-Ile-Lys-Pqa-Arg-His-Tyr-Leu-Asn-Leu-Val-Thr-Arg-Gln-Arg-Tyr-NH2 [Example 5]	–	> 5000 nM	0.032 nM	3.2 nM
